Screens: PubChem, National Center for Advancing Translational Sciences (NCATS)
TDP1 block: blocks human tyrosyl-DNA phosphodiesterase 1; recombinant TDP1, AlphaScreen DNA substrate cleavage; Potency, µM (doses to about 130 µM), without a hit: top-dose activity change, negative = inhibition, usual class: inhibitors; hit rate 0.28% among 350,000; AID 485290; note: potency is the fitted concentration of half-maximal effect; % is set by controls: 0 for no effect and ±100 for the full control effect; nearly all actives have a fitted effect of over 40% in size
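AlphaScreen read-out: signal falls as enzyme removes the 3' tyrosine-FITC from a 5'-biotinylated DNA oligo (15 nM, 5 min, RT). Enzyme was E. coli-made recombinant Tdp1 at 1 nM, exposed to compound for 15 min beforehand; beads 10 ug/ml, 10 min.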
miR-21 reporter: raises the signal of a miR-21 reporter; Potency, µM (doses to about 38.3 µM), inactives show top-dose reporter change, positive = more light; HeLa miR-21 FLuc reporter, luciferase, 48 h; AID 2288; 340,000 tested, under 10 active; active = well fitted rising curve with a large enough effect; inconclusive = small, poorly fitted or top-dose-only effect; inactive = no such curve, though single readings can be large or run the other way;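 further: % of control where 0% means no effect; miR-21 action dims this reporter so a rising signal means less miR-21 action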
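HeLa cells stably expressing CMV-driven firefly luciferase with a downstream miR-21 binding sequence, endogenously expressing miR-21, were treated with titrations (up to about 40uM final) for 48 hours at 37 degree Celsius. Luciferase luminescence was read after lysis.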
uPA generation: blocks generation of uPA at the cell surface; cell surface uPA generation assay, qHTS; Potency, µM (highest dose often 38.3 µM), inactives show top-dose activity change, negative = inhibition, usual class: inhibitors; hit rate 0.31% among 330,000; active = well fitted inhibition curve with a large enough effect; inconclusive = small, poorly fitted or top-dose-only effect; inactive = no such curve, though single readings can be large or run the other way; tested in mouse RAW 264.7 cells; note: potency is the fitted concentration of half-maximal effect; % is set by controls: 0 for no effect and ±100 for the full control effect; nearly all actives have a fitted effect of over 55% in size
DT40 TDP1 CPT: growth inhibition of DT40 Tdp1-/-;hTDP1 cells with camptothecin (screen for TDP1 inhibitors) | hit rate 12% among 420,000 | Potency, µM (top dose mostly 46.2 µM), for inactives: top-dose activity change, negative = growth inhibition, most hits filed as inhibitors | chicken DT40 Tdp1-/-;hTDP1 cells + 20 nM CPT, ATP luminescence, 48 h; note: potency is the fitted concentration of half-maximal effect; % is set by controls: 0 for no effect and ±100 for the full control effect; nearly all actives have a fitted effect of over 55% in size
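Cell growth measured by CellTiter-Glo luminescence after a minimum 48 h, 37 C compound exposure with 20 nM CPT in Tdp1-knockout DT40 cells stably expressing hTDP1, seeded 400/well; qHTS titration format.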
TDP1 cell noCPT: qHTS for Inhibitors of human tyrosyl-DNA phosphodiesterase 1 (TDP1): qHTS in cells in absence of CPT; hit rate 15% among 420,000; DT40 Tdp1-/- hTDP1 cells, no CPT, ATP luminescence, 48 h; Potency, µM (doses to about 46.2 µM), without a hit: top-dose activity change, negative = growth inhibition, actives largely listed as inhibitors; note: potency is the fitted concentration of half-maximal effect; % is set by controls: 0 for no effect and ±100 for the full control effect; nearly all actives have a fitted effect of over 55% in size
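Luminescent ATP content (CellTiter-Glo) served as the growth readout. Knockout chicken DT40 cells expressing human TDP1 were exposed to compounds without camptothecin for a minimum 48 hr at 37 °C.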
* hit, by the source's call; ! = repeats disagree; [ ] = another dose, or the depositor's remark. A selection: hits, their analogues and other compounds. The true share with any hit is near 16%. Unless noted, calls come from the whole dose curve; as a rule, active = well fitted curve in the direction sought with a large enough effect; inconclusive = small, poorly fitted or top-dose-only effect, or another doubt; inactive = no such curve, though single readings can be large; an effect the other way counts as inactive or inconclusive.

The first four entries, to show the layout:
Screening CC(=O)N1CCN(C2=NC(=O)/C(=C/c3ccc(OS(=O)(=O)c4ccccc4)cc3)S2)CC1 returned TDP1 block 6%, miR-21 reporter 2%, uPA generation inconclusive, DT40 TDP1 CPT 21µM* and TDP1 cell noCPT inconclusive.
Screening O=C1N=C(N2CCOCC2)S/C1=C\c1ccccc1OS(=O)(=O)c1ccccc1 returned miR-21 reporter -1%, uPA generation 5%, DT40 TDP1 CPT 12µM* and TDP1 cell noCPT 8.2µM*.
Screening O=C1N=C(N2CCOCC2)S/C1=C/c1cc2c(cc1[N+](=O)[O-])OCO2 returned TDP1 block -5%, miR-21 reporter 2%, uPA generation -5%, DT40 TDP1 CPT 12µM* and TDP1 cell noCPT 13µM*.
COC(=O)c1ccc(-c2noc(CN(Cc3nccn3C)C(C)C)n2)cc1 was read as TDP1 block 0%, miR-21 reporter 3%, uPA generation 1%, DT40 TDP1 CPT 13µM* and TDP1 cell noCPT inconclusive.

The whole of this part, previewed entries included:
Screening CC(=O)N1CCN(C2=NC(=O)/C(=C/c3ccc(OS(=O)(=O)c4ccccc4)cc3)S2)CC1 returned TDP1 block 6%, miR-21 reporter 2%, uPA generation inconclusive, DT40 TDP1 CPT 21µM* and TDP1 cell noCPT inconclusive.
Screening O=C1N=C(N2CCOCC2)S/C1=C\c1ccccc1OS(=O)(=O)c1ccccc1 returned miR-21 reporter -1%, uPA generation 5%, DT40 TDP1 CPT 12µM* and TDP1 cell noCPT 8.2µM*.
Screening O=C1N=C(N2CCOCC2)S/C1=C/c1cc2c(cc1[N+](=O)[O-])OCO2 returned TDP1 block -5%, miR-21 reporter 2%, uPA generation -5%, DT40 TDP1 CPT 12µM* and TDP1 cell noCPT 13µM*.
COC(=O)c1ccc(-c2noc(CN(Cc3nccn3C)C(C)C)n2)cc1 was read as TDP1 block 0%, miR-21 reporter 3%, uPA generation 1%, DT40 TDP1 CPT 13µM* and TDP1 cell noCPT inconclusive.
`CC(C)N(Cc1nc(-c2ccc3c(c2)OCO3)no1)Cc1nccn1C` gave miR-21 reporter -14%, uPA generation 8%, DT40 TDP1 CPT -27% and TDP1 cell noCPT inconclusive.
`Cc1noc(C)c1CSCC(=O)Nc1cc(C(F)(F)F)ccc1N1CCCCC1` gave uPA generation 11%, DT40 TDP1 CPT 18µM* and TDP1 cell noCPT 16µM*.
For CC(C)Oc1ccc(S(=O)(=O)N2CCOCC2)cc1NC(=O)C1CCC1 the results were TDP1 block -10%[0.505 µM], uPA generation 2%, DT40 TDP1 CPT -2% and TDP1 cell noCPT -5%.
`Cc1noc(C)c1CSCC(=O)Nc1cc(S(=O)(=O)N2CCCCC2)ccc1OC(C)C` gave TDP1 block -1%, uPA generation 6%, DT40 TDP1 CPT 12µM* and TDP1 cell noCPT 23µM*.
For CCN(CC)c1ccc(S(=O)(=O)N2CCCCC2)cc1NC(=O)CSCc1c(C)noc1C the results were uPA generation -26%, DT40 TDP1 CPT inconclusive and TDP1 cell noCPT inconclusive.
CC(C)Oc1ccc(S(=O)(=O)N2CCOCC2)cc1NC(=O)CSC(=S)N1CCCC1 was read as DT40 TDP1 CPT inconclusive and TDP1 cell noCPT 21µM*.
Screening Cc1noc(C)c1CSCC(=O)Nc1cc(Cl)ccc1N1CCCCC1 returned TDP1 block -16%, uPA generation 32%, DT40 TDP1 CPT -26% and TDP1 cell noCPT inconclusive.
For O=C(Cn1cc([N+](=O)[O-])ccc1=O)N1CCc2ccccc2C1 the results were TDP1 block -3%, uPA generation 5%, DT40 TDP1 CPT 1% and TDP1 cell noCPT -23%.
Screening CC(c1ccccc1)c1nnc(NC(=O)c2ccc3c(c2)OCO3)s1 (configuration not stated) returned TDP1 block 3%, miR-21 reporter 2%, uPA generation inconclusive, DT40 TDP1 CPT inconclusive and TDP1 cell noCPT 18µM*.
Screening CC(C)c1nnc(NC(=O)c2ccc3c(c2)OCO3)s1 returned TDP1 block -3%, miR-21 reporter -12%, uPA generation -9%, DT40 TDP1 CPT 4% and TDP1 cell noCPT -12%.
Screening COC(=O)c1ccc(NC(=O)c2ccc3c(c2)OCO3)cc1 returned TDP1 block 0%, miR-21 reporter -47%, uPA generation -8%, DT40 TDP1 CPT 2% and TDP1 cell noCPT -14%.
Screening COC(=O)c1c(-c2cccnc2)csc1NC(=O)c1ccc2c(c1)OCO2 returned TDP1 block 1%[56.1 µM], miR-21 reporter -67%, uPA generation -2%, DT40 TDP1 CPT inconclusive and TDP1 cell noCPT 23µM*.
COc1ccccc1-c1nnc(NC(=O)c2ccc3c(c2)OCO3)s1 was read as TDP1 block 4%, miR-21 reporter -9%, uPA generation 1%, DT40 TDP1 CPT 2.3µM* and TDP1 cell noCPT 2.1µM*.
`Cc1cn([C@H]2C[C@H](O)[C@@H](/C=C/C(=O)NCc3ccccc3)O2)c(=O)[nH]c1=O` gave DT40 TDP1 CPT -3% and TDP1 cell noCPT -6%.
Cc1ccc(-n2nc3c(N4CCC(C(=O)N5CCC(C)CC5)CC4)nnc(C)c3c2C)cc1 was read as TDP1 block 3%, miR-21 reporter -8%, DT40 TDP1 CPT -27% and TDP1 cell noCPT -21%.
Screening COc1ccc(-n2nc3c(N4CCC(C(=O)NC5CCCCC5)CC4)nnc(C)c3c2C)cc1 returned TDP1 block -10%, miR-21 reporter -2%, uPA generation -10%, DT40 TDP1 CPT 13µM*! and TDP1 cell noCPT 15µM*!.
For COc1ccc(-n2nc3c(N4CCC(C(=O)NCC(C)c5ccccc5)CC4)nnc(C)c3c2C)cc1 (configuration not stated) the results were TDP1 block 3%, miR-21 reporter 11%, uPA generation inconclusive, DT40 TDP1 CPT inconclusive and TDP1 cell noCPT inconclusive.
`Cc1ccc(-n2nc3c(N4CCC(C(=O)NCc5ccc(C)o5)CC4)nnc(C)c3c2C)cc1` gave TDP1 block -14%, miR-21 reporter 5%, uPA generation inconclusive, DT40 TDP1 CPT 23µM* and TDP1 cell noCPT inconclusive.
Cc1ccc(-n2nc3c(N4CCC(C(=O)N5CCCCC5)CC4)nnc(C)c3c2C)cc1 was read as TDP1 block 0%, miR-21 reporter 5%, DT40 TDP1 CPT inconclusive and TDP1 cell noCPT 23µM*.
Cc1ccc(-n2nc3c(N4CCC(C(=O)NCc5cccc(F)c5)CC4)nnc(C)c3c2C)cc1 was read as TDP1 block 40µM*, miR-21 reporter 11%, uPA generation -2%, DT40 TDP1 CPT inconclusive and TDP1 cell noCPT 18µM*.
Cc1nnc(N2CCC(C(=O)NCc3cccc(Cl)c3)CC2)c2nn(-c3ccccc3)c(C)c12 was read as TDP1 block -4%, miR-21 reporter 9%, DT40 TDP1 CPT inconclusive and TDP1 cell noCPT inconclusive.
Screening Cc1ccccc1OCC(=O)OCc1cc(=O)n2nc(-c3cccs3)sc2n1 returned TDP1 block 5%, miR-21 reporter -7%, DT40 TDP1 CPT inconclusive and TDP1 cell noCPT inconclusive.
For C/C=C/C(=O)Nc1ccccc1Br the results were TDP1 block 0%, miR-21 reporter -2%, uPA generation -3%, DT40 TDP1 CPT -22% and TDP1 cell noCPT -3%.
Screening Oc1ccccc1N1CCN(c2nc(-c3cccs3)nc3ccccc23)CC1 returned TDP1 block 5%, miR-21 reporter 0%, uPA generation -4%, DT40 TDP1 CPT -90% and TDP1 cell noCPT inconclusive.
For COc1ccc(-n2nc3c(N4CCC(C(=O)NCc5ccco5)CC4)nnc(C)c3c2C)cc1 the results were TDP1 block -13%, miR-21 reporter -8%, uPA generation 5%, DT40 TDP1 CPT inconclusive and TDP1 cell noCPT inconclusive.
Cc1ccc(-n2nc3c(N4CCC(C(=O)NCCC(C)C)CC4)nnc(C)c3c2C)cc1 was read as TDP1 block 6%, miR-21 reporter 0%, DT40 TDP1 CPT 16µM* and TDP1 cell noCPT inconclusive.
